We go through 29 compounds from PubChem BioAssay AID1446 (The Scripps Research Institute Molecular Screening Center, 2008).

This is a selection; strong and weak results do not stand in their true shares. The source made the active and inactive calls.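 The calls were made as follows: active = inhibition above the campaign mean plus 3 SD over all tested compounds (cut at about 24% in these data); inactive = the rest.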

The term inhibition denotes the drop in the measured response relative to a control, in per cent.

The nature of this assay: viability loss in Ba/F3 EpoR-JAK2V617F cells – cell-based, luminescence, JAK2V617F inhibitor project, primary screen (AID 1446).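 Also: cytokine-independent growth of Ba/F3 cells driven by EpoR plus mutant JAK2; 0% = DMSO-treated cells and 100% = JAK inhibitor I control.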 The settings on record: ATP luminescence, at 5.6 µM, active compounds read high.
In the case of `CCCOc1ccc(C)cc1CN(CCCl)CCCl`, the inhibition was inactive: -4.35%.
As to `COc1cc(OC)cc(C(=O)NCC2(N3CCOCC3)CCCCC2)c1`, the inhibition is inactive: 1.31%.
The result for `CCC(CO)(C(=O)OC1CN2CCC1CC2)c1ccccc1` (centres undefined) reads inactive: -2.23%.
As for `CC(C)(C)OC(=O)N1CCC(Nc2ccccc2)CC1`, the figure is inactive: 2.23%.
As for `CCOc1ncccc1C(=O)NCC1(N2CCOCC2)CCCCC1`, the figure is inactive: -1.71%.
As to `CN(C)c1ccc(C(=O)NCC2(N3CCCCC3)CCCCC2)cc1`, the inhibition was inactive: 0.21%.
As to `CCN1CCC(Nc2cccc(F)c2)CC1`, the inhibition is inactive: 3.83%.
The result for `c1ccc(CN2CCC(Nc3ccccc3)CC2)cc1` reads inactive: 0.49%; that for `N#Cc1ccc(C(=O)NCC2(N3CCCCC3)CCCCC2)cc1`, inactive: -1.18%.
The result for `O=C(OC1CN2CCC1CC2)C1c2ccccc2C=Cc2ccccc21` (centres undefined) reads inactive: -1.92%.
On to `N/C(=N\O)c1c(N)no[n+]1[O-]`, for which the inhibition was inactive: 2.1%.
The result for `COc1ccc(C(=O)NCC2(N3CCOCC3)CCCCC2)cc1OC` reads inactive: -0.68%; that for `CN1CCC(Nc2cccc(F)c2)CC1`, inactive: -1.96%; that for `CC(C)c1ccc(NC2CCN(C(=O)OC(C)(C)C)CC2)cc1`, inactive: -3.11%.
For `CN(C)c1cccc(C(=O)NCC2(N3CCCCC3)CCCCC2)c1`, the inhibition is inactive: -1.96%.
As for `COc1ccc(CN(CCCl)CCCl)cc1Cl`, the figure is inactive: -4.02%.
As for `O=C(NCC1(N2CCOCC2)CCCCC1)c1cc(=O)[nH]c2ccccc12`, the figure is inactive: 0%; as for `COc1ccc(NC2CCN(C(=O)OC(C)(C)C)CC2)cc1`, inactive: -3.88%.
As for `CN1CCN(CCOC(=O)C(O)(c2ccccc2)c2ccccc2)CC1`, the inhibition is inactive: -2.97%.
Consider `N#CC1(Nc2ccccc2)CCN(CCc2ccccc2)CC1`, for which the inhibition was inactive: -6.44%.
As for `O=C(NCC1(N2CCCCC2)CCCCC1)c1cccc([N+](=O)[O-])c1`, the figure is inactive: -1.38%; as for `Cc1ccc(OCC(C)C)c(CN(CCCl)CCCl)c1`, inactive: 3.66%; as for `COc1ccc(NC2CCN(CCc3ccccc3)CC2)c(OC)c1`, inactive: -3.84%.
For the compound `CCOc1ccc(C)cc1CN(CCCl)CCCl`, the inhibition is inactive: -0.98%.
As for `N#CC1(Nc2ccccc2)CCN(Cc2ccccc2)CC1`, the figure is inactive: -3.67%.
Regarding `O=C(OC1CN2CCC1CC2)C1c2ccccc2Oc2ccccc21` (centres undefined), the inhibition was inactive: 1.51%.
In the case of `CCOC(=O)N1CCC(Nc2ccc(OC)cc2)CC1`, the inhibition is inactive: 1.71%.
For `O=C(NCC1(N2CCOCC2)CCCCC1)c1cc2ccccc2o1`, the inhibition was inactive: -1.29%.
In the case of `COc1ccc(C(=O)NCC2(N3CCCCC3)CCCCC2)c(OC)c1OC`, the inhibition is inactive: -1.49%.
